From patent publication EP0147194B1 (Hosobuchi, Yoshio, priority 1983, dated 1989)

Test system: acute focal cerebral ischemia
Settings: cats, MCA occlusion; intraperitoneal injection 6 hours after occlusion, then osmotic pump; observed up to 7 days; saline group all died in less than 24 hours

## CO[C@]12CC[C@@]3(C[C@@H]1C(C)(C)O)[C@H]1Cc4ccc(O)c5c4[C@@]3(CCN1CC1CC1)[C@H]2O5
  prolonging survival (mortality as a function of time following the cerebral artery occlusions): little effect in prolonging survival
